Data: PMC8209036, “Structural basis for late maturation steps of the human mitoribosomal large subunit” (Nature Communications, 2021)

Chains of the proteins cited; added tags and fusions are not shown. Lines headed by an entry give the natural chain unless they say otherwise; changes in a name come on top.
UniProt Q9H4K7: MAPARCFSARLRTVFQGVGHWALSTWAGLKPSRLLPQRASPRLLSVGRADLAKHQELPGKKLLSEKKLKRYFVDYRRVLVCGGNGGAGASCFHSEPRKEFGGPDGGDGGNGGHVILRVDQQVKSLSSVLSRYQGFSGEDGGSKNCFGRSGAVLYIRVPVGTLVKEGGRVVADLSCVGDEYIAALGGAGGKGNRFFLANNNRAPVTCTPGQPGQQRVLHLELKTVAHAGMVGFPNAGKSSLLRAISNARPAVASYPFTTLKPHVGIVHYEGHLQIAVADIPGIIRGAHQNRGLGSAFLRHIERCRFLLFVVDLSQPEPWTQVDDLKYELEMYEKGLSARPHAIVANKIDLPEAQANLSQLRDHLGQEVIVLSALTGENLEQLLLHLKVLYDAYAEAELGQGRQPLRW

Target: C-terminal FLAG-tagged GTPBP5 (GTPBP5::FLAG) (human) (UniProt Q9H4K7)
Test: cryo-EM structure; GTPBP5IP mt-LSU assembly intermediate: native complex from mitochondria of HEK293T cells expressing GTPBP5::FLAG, isolated on anti-FLAG M2 agarose and eluted with 3x FLAG peptide; 3.1 A reconstruction (3.2 A for the mtEF-Tu- and MTG1-containing particles)
Conditions: scale: % of the GTPBP5-containing pre-ribosomal particles

share of the GTPBP5-containing pre-ribosomal particles that hold mtEF-Tu: 75
Substance: mitochondrial elongation factor mtEF-Tu (from UniProt P49411 47-455) (natural protein; other documents disagree on this pair)
